Results from patent EP4843994A1, “NOVEL PEPTIDE HAVING MUSCLE FORMATION-PROMOTING ACTIVITY, ANTI-OBESITY ACTIVITY AND ANTI-DIABETIC ACTIVITY AND USES THEREOF” (dated 2026).

How the values were obtained:
C2C12 cells [1] = experiment: Expression of proliferation-related marker genes in myoblasts (RT-PCR); settings: peptide 5 µM, 50 µM, one hour
Experimental: C2C12 cells (mouse-derived myoblasts) were cultured in DMEM medium containing 1% P/S and 10% FBS. When cell confluency reached 70 to 80%, cells were seeded into 6-well culture plates at a concentration of 5 x 10^5 cells/2 ml. On the next day, the medium was replaced with serum-free DMEM (1% P/S), and after about 4 hours, was treated with peptides (5 µM, 50 µM), and one hour after peptide treatment, the cells were harvested and RNA was extracted using Trizol (Thermo Fisher Scientific, USA). DNA complementary to the extracted RNA was synthesized using TOPScript™ RT DryMIX (enzynomics, Korea), and then polymerase chain reaction (PCR) was performed on the genes of factors (markers) involved in cell proliferation using TOPsimple™ DryMIX-nTaq (enzynomics, Korea). Next, the reaction products were run on a 1.5% agarose gel to compare the mRNA expression levels of the aforementioned factors (markers) for each sample. The primer sequences for the genes used in the PCR are listed in Table 2 below, and the GAPDH gene was used as a control group.

C2C12 cells [2] = experiment: Expression of differentiation markers and muscle protein synthesis signaling proteins in differentiation-induced myoblasts (Western blot); settings: differentiation medium, peptide 5 µM, 50 µM, three days
Experimental: C2C12 cells (mouse-derived myoblasts) were cultured in DMEM medium containing 1% P/S and 2% BCS (bovine calf serum). When cell confluency reached 70 to 80%, cells were seeded into 6-well culture plates at a concentration of 5 x 10^5 cells/2 ml. Subsequently, when cell confluency reached 100% in a 6-well culture plate, the differentiation medium (1% P/S, 2% horse serum) and peptide (5 µM, 50 µM) were replaced. Afterward, the differentiation medium (1% P/S, 2% horse serum) and peptide (5 µM, 50 µM) were replaced every two days, and lysis buffer was added to lyse the cells three days after the first replacement. Subsequently, the cell lysate was centrifuged at 4°C and 12,000 rpm for 30 minutes to obtain the protein. The obtained protein was quantified using a BCA kit. The protein was electrotransferred onto a membrane after performing SDS-PAGE (sodium dodecyl sulfate-polyacrylamide gel electrophoresis). After blocking the protein-attached membrane with 5% skim milk, the membrane was treated with the primary antibody and reactioned overnight at 4°C. The primary antibodies used are as follows: anti-α-actinin antibody (Santa Cruz, USA); anti-MyoG antibody (Santa Cruz, USA); anti-Myf6 antibody (Abcam, UK); anti-SIRT1 antibody (Cell Signaling Technology, USA); anti-pAMPKα antibody (Cell Signaling Technology, USA); anti-pAKT antibody (Cell Signaling Technology, USA); anti-pmTOR antibody (Cell Signaling Technology, USA); anti-p70S6 Kinase antibody (Cell Signaling Technology, USA); anti-α-tubulin antibody (Santa Cruz, USA). The reactant was washed with PBS-T, then reacted with secondary antibodies (Peroxidase-conjugated AffiniPure Goat Anti-Rabbit IgG (H+L), Jackson immunoResearch, USA; Peroxidase-conjugated AffiniPure Goat Anti-Mouse IgG (H+L), Jackson immunoResearch, USA) at room temperature for 1 hour, washed again with PBS-T, and then visualized by treatment with a Western detection reagent (Elpis Biotech, Daejeon, Korea) using Gel Doc (Bio-Rad, Hercules, CA, USA).

3T3-L1 cells = experiment: Expression of insulin resistance and sensitivity related proteins in oleic acid-treated adipocytes (Western blot); settings: 3T3-L1 adipocytes, 350 µM oleic acid, peptide 5 µM, 50 µM, 48 hours
Experimental: 3T3-L1 cells (preadipocytes, American Type Culture Collection) were cultured in DMEM medium comprising 2% BCS (Bovine Calf Serum) (Welgene, Korea). To differentiate 3T3-L1 cells into adipocytes, cells were seeded into 12-well culture plates at a concentration of 1 x 10^5 cells/well, and when the cells became confluent (Day=2), the medium was replaced once more and cultured for an additional 48 hours. After 48 hours (Day=0), the culture medium was replaced with DMEM medium comprising 10% FBS, 1% P/S, 1 µg/ml insulin (Sigma, USA), 0.5 mM isobutylmethylxanthine (IBMX) (Sigma, USA) and 1 µM Dexamethasone (Sigma, USA) and cultured. After 2 days (Day=2), the medium was replaced with DMEM comprising 10% FBS, 1% P/S, and 1 µg/ml insulin, and cultured. After 3 days (Day=5), the medium was replaced with one comprising only 10% FBS and 1% P/S, and an insulin resistance environment was induced by adding 350 µM oleic acid (Sigma, St. Louis, MO, USA) for 24 hours. After 24 hours of induction, the medium was replaced with DMEM medium (10% FBS, 1% BSA) supplemented with 350 µM oleic acid (Sigma, St. Louis, MO, USA) and peptides (5 µM, 50 µM), and cultured for 48 hours. After culture, lysis buffer was added to lyse the cells, and then the proteins were obtained by centrifugation at 12,000 rpm and 4°C for 30 minutes. The obtained proteins were then quantified using a BCA kit. […]

## C[C@@H](O)[C@H](NC(=O)CNC(=O)[C@@H](N)Cc1c[nH]cn1)C(=O)N[C@@H](Cc1ccc(O)cc1)C(=O)O
C2C12 cells [1]
  expression of CDK4 gene: significantly increased
  expression of NDRG2 gene: significantly increased
  expression of PCNA gene: significantly increased
C2C12 cells [2]
  expression of Myf6 protein: increased in a concentration-dependent manner
  expression of MyoG protein: increased in a concentration-dependent manner
  expression of SIRT1 protein: increased in a concentration-dependent manner
  expression of p70S6K protein: increased in a concentration-dependent manner
  expression of pAKT protein: increased in a concentration-dependent manner
  expression of pAMPKα protein: increased in a concentration-dependent manner
  expression of pmTOR protein: increased in a concentration-dependent manner
  expression of α-actinin protein: increased in a concentration-dependent manner
3T3-L1 cells
  expression level of pAMPKα: increased again
  expression level of pIRS(Ser302): decreased again
